According to PMC6925601 (European journal of medicinal chemistry, 2019):

Molecular target: T1, Cdc25A (Homo sapiens, UniProt P30304)
T1 sequence (P30304 1-524): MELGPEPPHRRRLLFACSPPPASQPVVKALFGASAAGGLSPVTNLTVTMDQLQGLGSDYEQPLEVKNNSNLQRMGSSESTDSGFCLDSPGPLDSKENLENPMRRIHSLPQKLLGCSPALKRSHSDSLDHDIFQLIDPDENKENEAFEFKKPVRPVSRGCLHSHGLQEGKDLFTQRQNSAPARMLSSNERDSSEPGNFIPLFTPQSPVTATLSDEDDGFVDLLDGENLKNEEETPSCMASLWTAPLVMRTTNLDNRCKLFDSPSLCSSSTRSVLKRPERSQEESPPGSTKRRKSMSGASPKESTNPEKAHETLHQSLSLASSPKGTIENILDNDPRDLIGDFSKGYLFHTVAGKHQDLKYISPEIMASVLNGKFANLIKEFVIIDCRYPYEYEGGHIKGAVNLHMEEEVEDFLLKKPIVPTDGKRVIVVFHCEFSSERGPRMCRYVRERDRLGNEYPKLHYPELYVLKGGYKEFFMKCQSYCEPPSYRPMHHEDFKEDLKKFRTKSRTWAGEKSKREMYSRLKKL
Test: CycLex Cdc25A fluorometric phosphatase inhibition assay
Type: biochemical

CSC1=C(SC)C(=O)c2ccccc2C1=O [Compound 13]
IC50: < 5 µM
